Test results as given in ChEMBL document CHEMBL4765362, “Thirty Years of HDAC Inhibitors: 2020 Insight and Hindsight” (J Med Chem, 2020).

Protein sequences, listed by entry. Tags and fused reporters are not part of them. Lines headed by an entry give the natural chain unless they say otherwise; changes in a name come on top.
UniProt P56524: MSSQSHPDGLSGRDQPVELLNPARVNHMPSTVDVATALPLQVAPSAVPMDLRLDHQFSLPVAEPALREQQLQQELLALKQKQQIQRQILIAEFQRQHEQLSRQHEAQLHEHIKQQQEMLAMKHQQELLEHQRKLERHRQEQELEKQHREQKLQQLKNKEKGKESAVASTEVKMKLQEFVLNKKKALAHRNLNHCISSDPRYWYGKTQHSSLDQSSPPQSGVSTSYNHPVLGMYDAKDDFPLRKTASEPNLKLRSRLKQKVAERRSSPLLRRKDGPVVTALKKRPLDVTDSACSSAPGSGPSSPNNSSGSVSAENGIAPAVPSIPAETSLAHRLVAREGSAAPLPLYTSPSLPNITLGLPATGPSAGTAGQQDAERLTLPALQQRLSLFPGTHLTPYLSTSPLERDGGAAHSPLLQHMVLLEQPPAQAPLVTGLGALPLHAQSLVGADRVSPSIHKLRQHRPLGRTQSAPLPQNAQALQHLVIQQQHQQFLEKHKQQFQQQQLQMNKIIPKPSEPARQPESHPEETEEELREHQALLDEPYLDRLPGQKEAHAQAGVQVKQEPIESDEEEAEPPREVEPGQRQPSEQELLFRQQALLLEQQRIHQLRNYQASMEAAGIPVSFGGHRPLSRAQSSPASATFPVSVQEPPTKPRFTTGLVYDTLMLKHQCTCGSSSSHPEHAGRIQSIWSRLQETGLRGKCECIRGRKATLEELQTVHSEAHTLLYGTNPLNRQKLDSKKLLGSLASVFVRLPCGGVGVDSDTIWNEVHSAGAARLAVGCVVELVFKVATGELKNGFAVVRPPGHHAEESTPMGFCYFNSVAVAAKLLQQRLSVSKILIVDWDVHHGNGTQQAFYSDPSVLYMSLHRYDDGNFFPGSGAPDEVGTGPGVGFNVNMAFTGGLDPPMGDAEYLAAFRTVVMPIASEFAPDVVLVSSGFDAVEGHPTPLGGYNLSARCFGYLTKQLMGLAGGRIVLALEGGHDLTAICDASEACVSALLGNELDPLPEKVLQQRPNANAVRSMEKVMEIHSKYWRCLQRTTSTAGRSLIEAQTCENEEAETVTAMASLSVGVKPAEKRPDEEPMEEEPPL

Target: Histone deacetylase 4 (Homo sapiens, UniProt P56524)
Assay: Inhibition of human full length recombinant HDAC4 using p53 (379 to 382 residues) Ac-LGK(TFA)-AMC as substrate preincubated for 5 to 10 mins followed by substrate addition and measured after 2 hrs by fluorescence method

IC50: 3 µM
Compound: CN1CCc2c(c3ccccc3n2Cc2ccc(C(=O)NO)cc2)C1 [TUBASTATIN A]
